The record followed here is US20030073132A1, “Method for the screening of alpha2delta-1 subunit binding ligands” (priority 1999, published 2003).

The chains behind the UniProt entries cited, without tags or fusion partners. Where a name states a change or a piece, a line headed by the entry shows the natural chain unless it says otherwise. Residues count along the entry.
UniProt O77773, 25-1091: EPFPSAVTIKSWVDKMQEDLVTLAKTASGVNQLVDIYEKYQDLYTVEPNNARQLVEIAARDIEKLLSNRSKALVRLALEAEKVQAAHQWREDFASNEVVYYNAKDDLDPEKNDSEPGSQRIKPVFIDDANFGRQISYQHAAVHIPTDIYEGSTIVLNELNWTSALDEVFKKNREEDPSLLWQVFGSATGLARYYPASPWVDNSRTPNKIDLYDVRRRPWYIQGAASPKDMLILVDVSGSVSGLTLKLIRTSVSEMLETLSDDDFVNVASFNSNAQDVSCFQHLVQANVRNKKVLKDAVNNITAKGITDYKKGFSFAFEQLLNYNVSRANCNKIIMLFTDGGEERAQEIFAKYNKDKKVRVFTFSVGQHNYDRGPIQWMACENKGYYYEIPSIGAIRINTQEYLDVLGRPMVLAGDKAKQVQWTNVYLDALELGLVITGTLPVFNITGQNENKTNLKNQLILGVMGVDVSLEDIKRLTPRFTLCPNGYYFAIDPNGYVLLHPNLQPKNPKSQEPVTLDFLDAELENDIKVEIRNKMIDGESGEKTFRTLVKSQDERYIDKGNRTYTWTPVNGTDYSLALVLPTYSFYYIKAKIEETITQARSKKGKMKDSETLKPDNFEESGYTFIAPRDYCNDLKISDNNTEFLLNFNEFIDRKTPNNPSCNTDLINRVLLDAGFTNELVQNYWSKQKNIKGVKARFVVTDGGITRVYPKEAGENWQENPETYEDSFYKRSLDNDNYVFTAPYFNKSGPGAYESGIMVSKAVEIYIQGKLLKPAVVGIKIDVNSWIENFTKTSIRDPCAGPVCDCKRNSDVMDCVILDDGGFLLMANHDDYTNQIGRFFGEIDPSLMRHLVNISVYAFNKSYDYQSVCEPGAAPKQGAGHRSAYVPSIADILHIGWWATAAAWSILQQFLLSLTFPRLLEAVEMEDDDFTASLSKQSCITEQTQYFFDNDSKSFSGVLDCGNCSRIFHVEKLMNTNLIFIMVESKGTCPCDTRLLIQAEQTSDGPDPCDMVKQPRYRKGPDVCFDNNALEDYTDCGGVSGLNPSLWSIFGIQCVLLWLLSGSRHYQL
UniProt A0A287BIN3, 25-1109 limits assumed: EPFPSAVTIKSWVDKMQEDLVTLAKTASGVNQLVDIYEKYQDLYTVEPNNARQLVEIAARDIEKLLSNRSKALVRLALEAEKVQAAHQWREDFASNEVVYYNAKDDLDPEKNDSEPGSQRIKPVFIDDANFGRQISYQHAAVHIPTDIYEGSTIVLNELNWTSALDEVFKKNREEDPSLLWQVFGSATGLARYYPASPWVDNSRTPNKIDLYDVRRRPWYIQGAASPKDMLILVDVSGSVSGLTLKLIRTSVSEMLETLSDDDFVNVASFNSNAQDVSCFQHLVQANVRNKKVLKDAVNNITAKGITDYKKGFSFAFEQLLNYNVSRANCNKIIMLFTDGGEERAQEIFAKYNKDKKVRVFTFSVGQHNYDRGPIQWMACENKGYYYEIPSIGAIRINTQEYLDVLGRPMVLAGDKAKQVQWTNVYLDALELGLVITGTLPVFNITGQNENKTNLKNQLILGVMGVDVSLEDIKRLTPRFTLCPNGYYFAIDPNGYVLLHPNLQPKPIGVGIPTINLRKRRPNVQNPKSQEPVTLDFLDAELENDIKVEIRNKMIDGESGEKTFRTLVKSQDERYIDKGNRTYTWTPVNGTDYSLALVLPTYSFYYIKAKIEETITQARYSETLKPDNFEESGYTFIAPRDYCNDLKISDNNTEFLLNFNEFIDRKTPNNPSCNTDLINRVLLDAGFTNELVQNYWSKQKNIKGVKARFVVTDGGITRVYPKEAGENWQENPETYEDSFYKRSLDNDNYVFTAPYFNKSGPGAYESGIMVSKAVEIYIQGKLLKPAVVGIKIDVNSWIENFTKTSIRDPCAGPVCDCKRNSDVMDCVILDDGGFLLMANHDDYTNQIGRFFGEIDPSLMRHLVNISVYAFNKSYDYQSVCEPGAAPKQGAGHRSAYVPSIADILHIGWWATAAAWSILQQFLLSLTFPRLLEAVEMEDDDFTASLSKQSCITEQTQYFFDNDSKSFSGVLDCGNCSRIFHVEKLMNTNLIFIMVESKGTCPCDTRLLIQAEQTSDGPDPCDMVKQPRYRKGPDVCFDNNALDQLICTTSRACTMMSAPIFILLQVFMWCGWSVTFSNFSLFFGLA

Where “and” joins values, the source holds several entries; their conditions need not be identical. Equal entries are not always repeated. Where two headings read alike, the source gives them in different places.

For orientation: IC50 means the concentration that inhibits the measured activity by half. Low values mean higher potency, high ones lower potency. For orientation: Ki means the equilibrium dissociation constant of an inhibitor or competing ligand from its target.

The target in test [1] is [^3H]gabapentin site in porcine cortical membranes (Sus scrofa, UniProt O77773). Nature of the test: [3H]gabapentin binding in porcine cortical membranes. The following applies: […] ± S.E.M., n = 3. The source says: In cases where the α2δ-1 binding site is the [^3H]gabapentin binding site, the preferred labelled compound which can be used is of course gabapentin itself. However, gabapentin is not the only labelled compound which can be used in this context.

For test [2], the target named is porcine α2δ-1b-6His (SEQ ID No 9) (Sus scrofa, UniProt A0A287BIN3). To be noted: [3H]gabapentin 10-13 nM.

For the substance “1-aminoethyl-cyclohexane acetic acid [Gabapentin]”, in test [1], the IC50 turned out to be 42.1 ± 5.5 nM. For the same substance, the Ki in test [2] (read-out: Ki, Flash plate (3 μl protein used, n = 2), single experiments, Ki = IC50/(1 + [L]/KD), 3 h incubation, acetic acid) is 10.4 nM and 7.97 nM; in test [2] (read-out: Ki, Flash plate, Mean (geometric), geometric mean of n = 2) it was 9.1 nM.
